Reference: patent EP0386951A2, “An improved diluent formulation for daptomycin” (ELI LILLY AND COMPANY, priority 1989, dated 1990)

Experiment: Degradation kinetic studies (rate of appearance of degradation products vs pH)
Type: physicochemical

## daptomycin
25°C and pH 4.5
  appearance half-life for the degradation products: 6 h
25°C and pH 7.0
  appearance half-life for the degradation products: 63 h
